Results: patent US20180346446A1, “IRE1 SMALL MOLECULE INHIBITORS” (QUENTIS THERAPEUTICS, INC., priority 2017, published 2018)

Amino acid sequences for entries named in this document (tags omitted). Residues count along the entry.
UniProt O75460, 19-977 limits assumed: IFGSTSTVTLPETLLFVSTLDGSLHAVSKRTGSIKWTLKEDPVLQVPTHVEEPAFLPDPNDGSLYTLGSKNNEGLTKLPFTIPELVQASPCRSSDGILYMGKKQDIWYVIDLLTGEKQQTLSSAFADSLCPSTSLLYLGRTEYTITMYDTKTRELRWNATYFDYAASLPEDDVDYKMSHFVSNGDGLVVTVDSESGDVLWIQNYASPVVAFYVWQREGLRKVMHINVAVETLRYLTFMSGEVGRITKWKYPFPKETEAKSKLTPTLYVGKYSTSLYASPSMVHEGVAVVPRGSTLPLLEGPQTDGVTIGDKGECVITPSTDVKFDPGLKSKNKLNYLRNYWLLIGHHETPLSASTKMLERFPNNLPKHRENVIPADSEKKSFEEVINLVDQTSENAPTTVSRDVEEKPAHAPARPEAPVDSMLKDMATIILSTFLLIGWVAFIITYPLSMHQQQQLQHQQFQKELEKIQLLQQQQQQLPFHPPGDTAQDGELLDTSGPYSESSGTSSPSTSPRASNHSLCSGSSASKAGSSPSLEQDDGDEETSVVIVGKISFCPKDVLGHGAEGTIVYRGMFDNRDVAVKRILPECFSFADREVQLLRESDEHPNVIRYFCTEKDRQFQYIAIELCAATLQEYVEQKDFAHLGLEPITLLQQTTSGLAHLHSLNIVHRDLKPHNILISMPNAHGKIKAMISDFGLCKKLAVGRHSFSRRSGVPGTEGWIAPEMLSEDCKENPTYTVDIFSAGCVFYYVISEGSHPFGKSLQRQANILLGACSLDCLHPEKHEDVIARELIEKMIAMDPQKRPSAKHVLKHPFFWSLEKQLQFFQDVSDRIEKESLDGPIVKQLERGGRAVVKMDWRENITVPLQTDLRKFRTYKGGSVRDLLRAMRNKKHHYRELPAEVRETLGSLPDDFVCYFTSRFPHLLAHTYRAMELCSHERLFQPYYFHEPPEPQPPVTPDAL

What was measured:
IRE1a [1] = molecular target: T1, IRE1a (Homo sapiens, UniProt O75460); assay: In vitro FRET assay (XBP1 RNA probe cleavage by IRE1a); conditions: read-out: Mean IC50, 2 nM IRE1a protein
Experimental: In vitro FRET assay was performed to evaluate the ability of select compounds to inhibit IRE1, the results of which are summarized in Table 3. To perform the in vitro FRET assay, 1× complete assay buffer (CAB; […], 50 mM sodium citrate pH 7.15, ImM magnesium acetate, 0.02% tween 20) was used to dilute SignalChem IRE1a protein to a final concentration of 2 nM. Selected compounds were serially diluted with DMSO in a non-binding black 384-well plate for a total of 15 ul in each well. 2 ul of the serially diluted compound or DMSO control were then added to new wells containing 98 ul of 1×CAB, for a total volume of 100 ul, 10 ul of which were then transferred to wells of a new plate. 5 ul of the diluted IRE1a was then added to each well. 5 ul of a […] XBP1 RNA probe was then added to each well. Fluorescence was then read over 30 minutes in kinetic mode (485/515 nm).
Two RNA probes were used, XBP1 wildtype (SEQ ID NO: 2) which is able to be spliced by active IRE1a or XBP1 mutant (SEQ ID NO: 3) which is unable to be spliced. Each probe contained a 5′ 6-FAM modification and a 3′ IOWA Black FQ modification. […]

IRE1a [2] = molecular target: T1, IRE1a; assay: IRE1a Endoribonuclease Nanoluciferase Assay (XBP1 luciferase reporter in 293T cells); conditions: read-out: Mean EC50; 293T cells transfected with XBP1 luciferase reporter, ER stressors +/- inhibitors
Experimental: Compounds disclosed herein were assessed for disruption of IRE1 signaling using a IRE1a Endoribonuclease Nanoluciferase Assay. Briefly, 2.5×10^6 293T cells were seeded in a 10 cm^2 tissue culture plate. About 24 hours later, the cells were transfected with Effectene. In a 15 mL Tube, the following was added: 2 ug XBP1 luciferase reporter plasmid (PGK-Luc2-P2A-XBP1u-Nanoluciferase-PEST); 300 ul EC buffer; and 16 ul Enhancer, followed by incubation at room temp for 5 minutes. Next, 60 ul Effectene (Qiagen 301427) was added, followed by incubation at room temperature for 10 minutes. 2.6 mL cDMEM media was added. Old media was aspirated from the cells, followed by addition of 7 mL fresh media. Full transfection mixture was added dropwise to cells. Cells were incubated for 6 hours, followed by trypsinization, centrifugation and resuspension in 11 mL media. 100 uL of cells were plated per a well in a 96 well plate. A day later, ER stressors of choice +/− inhibitors were added. To harvest, media was aspirated from cells completely, then 50 uL 1× passive lysis buffer (Promega: E1941) was added per well and put on shaker (300 rpm) for 30 minutes at room temperature. […] Plates were read on luminometer, 1000 ms integration time per well. […] Plates were read on luminometer, 1000 ms second integration time per well. […]

Row | Structure (SMILES) | IC50 (IRE1a [1]) | EC50 (IRE1a [2])
1 | CCc1cc(-c2ccc(NS(=O)(=O)c3ccccc3Cl)c(F)c2)cc2cnc(N[C@H]3CC4C[C@H](N)CC4C3)nc12 (single isomer, unassigned) | 5 to 50 nM | 50 to 100 nM
2 | N[C@H]1CC[C@H](Nc2ncc3cc(-c4cc(F)c(NS(=O)(=O)c5ccccc5Cl)cc4F)ccc3n2)CC1 | < 5 nM | < 5 nM
